Target: DOR (Homo sapiens, UniProt P41143)
Experiment: Radioligand competition binding at DOR
Settings: read-out: Receptor Binding, Ki ± SEM DOR

Sequences of proteins named here, by UniProt entry; tags and fusion partners are left off.
UniProt P41143, whole entry: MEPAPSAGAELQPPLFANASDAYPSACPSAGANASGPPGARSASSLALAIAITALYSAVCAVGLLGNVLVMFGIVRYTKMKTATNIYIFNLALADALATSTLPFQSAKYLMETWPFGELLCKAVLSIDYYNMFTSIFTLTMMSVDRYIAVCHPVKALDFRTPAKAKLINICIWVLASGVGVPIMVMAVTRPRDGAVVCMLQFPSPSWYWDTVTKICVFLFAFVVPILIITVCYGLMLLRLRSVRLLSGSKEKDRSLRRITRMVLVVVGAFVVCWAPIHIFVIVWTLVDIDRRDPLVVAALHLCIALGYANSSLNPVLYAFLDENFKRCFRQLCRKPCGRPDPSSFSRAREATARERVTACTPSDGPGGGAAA

Q: How did the Ki turn out when `C[C@@H](NC(=O)[C@@H](N)Cc1ccc(O)cc1)C(=O)NCC(=O)N(C)[C@@H](Cc1ccccc1)C(=O)NCCO` [DAMGO, [D-Ala2,N-MePhe4,glyol]enkephalin, reference compound] was run?
A: 857 ± 61 nM

Reference: article PMC12251305 (Molecules, 2025)
